Apparent affinities of Ab-95 variants for a coronavirus HR2 peptide

From the AlphaSeq antibody data of Engelhart et al. 2022 (doi:10.1038/s41597-022-01779-4), copy in the FLAb collection.

All variants were tested on one target, the spike HR2 peptide PDVDLGDISGINAS (SARS-CoV-2).

Ab-95 is the parent antibody, in scFv form: VH, then a 15-residue (Gly4Ser)3 linker, then VL. The heavy chain is unchanged in all variants.
VH: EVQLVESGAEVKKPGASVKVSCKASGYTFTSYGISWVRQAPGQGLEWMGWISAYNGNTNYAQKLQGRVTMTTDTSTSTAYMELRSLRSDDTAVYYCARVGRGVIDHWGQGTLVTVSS
VL: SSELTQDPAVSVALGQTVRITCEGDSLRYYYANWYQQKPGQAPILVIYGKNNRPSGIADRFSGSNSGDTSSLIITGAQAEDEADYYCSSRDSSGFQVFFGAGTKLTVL

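Phage display of a naive human antibody library on the peptide gave the parent. AAYL52 was designed without a model: most single CDR substitutions and a random sample of double and triple ones. Affinity was read by AlphaSeq, a pooled yeast mating assay with surface-displayed partners. Pairs that bind mate more often; barcode pairs of the diploids are counted by sequencing. A regression on co-assayed BCL2-family reference pairs converts the normalised counts of each replicate to an apparent Kd. The assay was run in three technical replicates.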

The parent's light chain CDRs are EGDSLRYYYAN, GKNNRPS, SSRDSSGFQVF; each variant's own CDRs replace them letter for letter.
All variants listed here change R53 of the VL, counted from its first residue.
Numbers give log10(Kd / nM), so 0 is 1 nM and 3 is 1 µM. Smaller is tighter.
Replicates are averaged; those with no signal do not enter the mean.
"no signal" marks a missing value. The strain was present, yet no cells mated with the target were sequenced in any replicate, which points to weak or no binding.

| CDR-L1 | CDR-L2 | CDR-L3 | mean, log10 nM | detected |
|---|---|---|---|---|
| TGDSLRYYYAN | GKNNCPS | SSRGSSGFQVF | 3.42 | 3 of 3 |
| EGDSLRYYYAQ | GKNNLPS | SSNDSSGFQVF | no signal | 0 of 3 |
| AGDSLRYYYAN | GKNNPPS | SSRNSSGFQVF | no signal | 0 of 3 |
| EGDSLRYYYAN | GKNNFPI | SSRPSSGFQVF | 4.55 | 2 of 3 |
| AVDSLRYYYAN | GKNNYPS | SSRDSSGFQVF | 4.30 | 1 of 3 |
| EGDSLRYYYAN | GKNNAPS | SLRDSSGFQHF | no signal | 0 of 3 |
| EGCSLRYYYAN | GKNNPPS | SSRDSSGFQVF | 4.71 | 1 of 3 |
| LGDSLRYYYAN | GKNNYRS | SSRDSSGFQVF | 4.49 | 2 of 3 |
| EGDSLRYYYAS | GKNNCPS | SSRDSSSFQVF | 4.04 | 1 of 3 |
| EGDSKRYYYAN | GKRNIPS | SSRDSSGFQVF | 3.45 | 1 of 3 |
| EGDSLRYFYPN | GKNNCPS | SSRDSSGFQVF | 4.03 | 2 of 3 |
| EGDWLRCYYAN | GKNNEPS | SSRDSSGFQVF | 3.47 | 1 of 3 |
| EGDSLGYYYAN | GKNNLPS | GSRDSSGFQVF | 5.13 | 1 of 3 |
| EGDSLRYYYAN | GKNNEPS | SSRDSSGFQVF | 3.71 | 3 of 3 |
| EGNSLRYYYAN | GKNNHPY | SSRDSSGFQVF | 3.35 | 2 of 3 |
| EGDSLRYYYAR | GKNNEPY | SSRDSSGFQVF | 4.44 | 1 of 3 |
| EGDSLRYYYAN | GNNNAPS | SSRDSSGFQVF | 2.66 | 3 of 3 |
| FGDSLRYYYAN | GKNNTPS | SSRCSSGFQVF | 3.87 | 3 of 3 |
| EGDSLRYRYAD | GKNNVPS | SSRDSSGFQVF | 1.89 | 3 of 3 |
| EGRSLRYYYAN | GKNNKPS | YSRDSSGFQVF | 3.04 | 3 of 3 |
| EGDSLRYSYAN | GKINCPS | SSRDSSGFQVF | 4.16 | 2 of 3 |
| EGDSLRYYYAN | GKNNHPS | SSRDPSGFQVF | 2.36 | 3 of 3 |
| EGDSLKYYYAN | GKNNNPS | SSRDSSGFQVK | 3.12 | 1 of 3 |
| EMDSLRYYYAN | GNNNQPS | SSRDSSGFQVF | 3.47 | 3 of 3 |
| EPDSLRYYYAN | GKINTPS | SSRDSSGFQVF | 5.25 | 1 of 3 |
| EGDSLRYYYAN | GKNNFLS | SSRDSSGFQLF | 4.30 | 1 of 3 |
| EGDNLRYYYAN | GKNNEVS | SSRDSSGFQVF | 3.88 | 2 of 3 |
| EGDSLRYYYRN | GCNNQPS | SSRDSSGFQVF | 3.66 | 3 of 3 |
| EGDPLRYYYAN | GKNNIPA | SSRDSSGFQVF | 2.75 | 3 of 3 |
| EGCSLRYYYAN | GKNCTPS | SSRDSSGFQVF | 3.48 | 2 of 3 |
| TGDSLRYYYAN | GKNNIPS | SSRDSSDFQVF | 5.44 | 1 of 3 |
| EGDSLRYYYAN | IKNNGPS | SSRDSSGFQNF | 3.51 | 1 of 3 |
| EIDSLRYYLAN | GKNNYPS | SSRDSSGFQVF | 3.76 | 2 of 3 |
| EGDALRYYYAN | GKNNIPS | SSRDSSGFQCF | no signal | 0 of 3 |
| EGDSERYYYAK | GKNNEPS | SSRDSSGFQVF | 4.48 | 2 of 3 |
| EGDSLRYYYAN | GKNNQPS | SSRDPSGFQVP | 3.80 | 2 of 3 |
| EGDSLRYYMAN | GKNNFPS | SSRDSSGFQVF | 3.58 | 3 of 3 |
| EGDSLRYYYAN | GKNVTPS | SSRCSSGFQVF | no signal | 0 of 3 |
| EGDSLRYYYAN | GKNNMPS | ALRDSSGFQVF | 3.62 | 1 of 3 |
| EGDCLRYYYAN | GKNCYPS | SSRDSSGFQVF | 3.77 | 1 of 3 |
| EGDLLRYYYAN | GKNNLPS | SSRDSSGFQVF | 3.51 | 3 of 3 |
| EGDSLRYYYAN | GKNNNPS | SSRESSGFQVS | 3.89 | 2 of 3 |
| EGDSLRYYYAN | GKNNCPV | SRRDSSGFQVF | no signal | 0 of 3 |
| EGLSLRYYYAN | GKNNYPS | SSRDSEGFQVF | 4.02 | 2 of 3 |
| EGMSLRYYYAN | WKNNFPS | SSRDSSGFQVF | 3.54 | 3 of 3 |
| EGDSLRYYYAN | CKNNIPS | SSRDSLGFQVF | 3.61 | 1 of 3 |
| EGDALRYYYAN | GKNNNPS | SSMDSSGFQVF | 5.53 | 1 of 3 |
| EEDSLRYYYAY | GKNNCPS | SSRDSSGFQVF | 4.33 | 2 of 3 |
| EGDSLRYYYAN | GKNNAPS | SVRDSSGFQKF | 2.94 | 3 of 3 |
| EGDSLRYYYAN | GKNNMPS | SSRDSSGFQVF | 2.69 | 3 of 3 |
| EGDSLRYYYAN | GKNNMPY | SRRDSSGFQVF | no signal | 0 of 3 |
| EFDSLRYYYAN | GKNNYPS | SSRDSSWFQVF | 3.87 | 2 of 3 |
| YGDSLRYYYAN | GKNNMPS | SSRDSSGWQVF | 3.52 | 1 of 3 |
| EGDSLRYYYAN | GKNNFPS | ISRDSSGFQTF | 3.58 | 1 of 3 |
| EGDFLRYYYAN | GKNNKPS | SSRDSSIFQVF | no signal | 0 of 3 |
| EGDSLRYYYAN | GKNNMPS | DSRDSSGFQYF | no signal | 0 of 3 |

The opening 9 entries, copied out:

| CDR-L1 | CDR-L2 | CDR-L3 | mean, log10 nM | detected |
|---|---|---|---|---|
| TGDSLRYYYAN | GKNNCPS | SSRGSSGFQVF | 3.42 | 3 of 3 |
| EGDSLRYYYAQ | GKNNLPS | SSNDSSGFQVF | no signal | 0 of 3 |
| AGDSLRYYYAN | GKNNPPS | SSRNSSGFQVF | no signal | 0 of 3 |
| EGDSLRYYYAN | GKNNFPI | SSRPSSGFQVF | 4.55 | 2 of 3 |
| AVDSLRYYYAN | GKNNYPS | SSRDSSGFQVF | 4.30 | 1 of 3 |
| EGDSLRYYYAN | GKNNAPS | SLRDSSGFQHF | no signal | 0 of 3 |
| EGCSLRYYYAN | GKNNPPS | SSRDSSGFQVF | 4.71 | 1 of 3 |
| LGDSLRYYYAN | GKNNYRS | SSRDSSGFQVF | 4.49 | 2 of 3 |
| EGDSLRYYYAS | GKNNCPS | SSRDSSSFQVF | 4.04 | 1 of 3 |

Parent in this assay: reference entry 2.31, copy in this library 2.25.
Nonspecific signal, from three strains lacking the peptide, appeared in 28% of pairings of library AAYL52, centred on 3.91 (5% of these signals below 2.90); values are not corrected for it.